Consider 6 compounds from ChEMBL document CHEMBL5528032, “Novel Carbonic Anhydrase Inhibitors with Dual-Tail Core Sulfonamide Show Potent and Lasting Effects for Glaucoma Therapy” (J Med Chem, 2024).

By UniProt entry, the sequences of proteins in these tests, tags left out. Where a name states a change or a piece, a line headed by the entry shows the natural chain unless it says otherwise.
UniProt P43116: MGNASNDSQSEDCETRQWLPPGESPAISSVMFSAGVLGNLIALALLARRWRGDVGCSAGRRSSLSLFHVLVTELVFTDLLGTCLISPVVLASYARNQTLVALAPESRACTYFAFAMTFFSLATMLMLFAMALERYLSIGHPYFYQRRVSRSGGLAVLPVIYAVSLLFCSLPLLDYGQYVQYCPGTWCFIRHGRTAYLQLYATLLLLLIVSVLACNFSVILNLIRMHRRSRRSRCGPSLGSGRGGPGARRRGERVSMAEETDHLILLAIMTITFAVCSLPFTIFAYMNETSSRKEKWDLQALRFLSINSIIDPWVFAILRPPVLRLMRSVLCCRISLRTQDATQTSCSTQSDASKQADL

Active and inactive are the calls of the source. The calls are words filed in the database; no cut-off is given here.

Assay [1] concerns the target Prostaglandin E2 receptor EP2 subtype (Homo sapiens) (UniProt P43116). The experiment in a line: Agonist activity at human EP2 receptor expressed in HEK293 cells incubated for 7 hrs. Type of assay: functional, cell-based.
The target is the same in assay [2]. The assay is described as follows: Agonist activity at human EP2 receptor expressed in HEK293 cells at 100 uM incubated for 7 hrs relative to control. Type of assay: functional, cell-based. The settings on record: filed as agonist.

As to `NS(=O)(=O)c1ccc(CN(Cc2cccc(NCC(=O)O)c2)S(=O)(=O)c2ccccc2)cc1`, the result in assay [1] was inactive.
With `NS(=O)(=O)c1ccc(CN(Cc2cccc(NCC(=O)O)c2)S(=O)(=O)c2cccc(C(F)(F)F)c2)cc1`, in assay [1], the outcome was inactive.
As for `NS(=O)(=O)c1ccc(CCN(Cc2cccc(NCC(=O)O)c2)S(=O)(=O)c2ccccc2)cc1`, the outcome in assay [1] was inactive. For the same compound, in assay [2], the Activity was found to be 40%.
Turning to `NS(=O)(=O)c1ccc(CN(Cc2cccc(OCC(=O)O)c2)S(=O)(=O)c2ccccc2)cc1`, in assay [1], the outcome was inactive. For the same compound, the Activity in assay [2] turned out to be 40%.
Regarding `NS(=O)(=O)c1ccc(CN(Cc2cccc(OCC(=O)O)c2)S(=O)(=O)c2cccc(C(F)(F)F)c2)cc1`, the result in assay [1] was inactive.
In the case of `Cc1ccc(S(=O)(=O)N(Cc2ccc(S(N)(=O)=O)cc2)Cc2cccc(NCC(=O)O)c2)cc1`, the outcome in assay [1] was inactive.
